Measured values reported in PubChem BioAssay AID492972 (The Scripps Research Institute Molecular Screening Center, 2010).
The list shows a part of the results, in another mix than the full data. Some structures show a salt or complex split into parts, the way the source records it. Calls of active or inactive are those of the source.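 The calls were made as follows: active = inhibition above the screen-wide average of all tested compounds plus 3 SD (cut at about 25% in these data); inactive = the rest.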

Sequences of proteins named here, by UniProt entry; tags and fusion partners are left off.
UniProt Q15102, whole entry: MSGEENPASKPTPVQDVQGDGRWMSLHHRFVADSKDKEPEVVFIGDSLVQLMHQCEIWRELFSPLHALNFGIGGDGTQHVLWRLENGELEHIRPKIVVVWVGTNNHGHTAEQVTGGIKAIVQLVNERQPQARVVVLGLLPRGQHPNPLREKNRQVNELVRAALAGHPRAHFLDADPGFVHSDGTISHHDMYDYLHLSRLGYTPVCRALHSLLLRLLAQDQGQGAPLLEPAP

These compounds were tested against Platelet-activating factor acetylhydrolase IB subunit alpha1 (Homo sapiens) (UniProt Q15102) (assay: inhibition of PAF acetylhydrolase 1B subunit 3 – biochemical, fluorescence polarization, human, primary screen (AID 492972;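 also: 0% = enzyme with DMSO only and 100% = wells lacking PAFAH1B3 protein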)). Conditions: recombinant PAFAH1B3, FP-rhodamine probe, at 3.39 µM, hits give high values.

SMILES	inhibition
CCOC(=O)c1ccc(NP(C)(=O)Oc2ccc(OC)cc2)cc1 (stereo not given)	inactive: 10.2%
CCOP(C)(=S)SCC(=O)NC(C)C(=O)O (stereo not given)	inactive: -5.08%
CP(=O)(Nc1ccccn1)Oc1ccc(Cl)cc1 (stereo not given)	inactive: 5.6%
Cc1cccc(C)c1OP(C)(=O)Nc1ccc(SC(F)(F)F)cc1 (stereo not given)	inactive: 1.83%
CP(=O)(Oc1ccccc1)OC(c1ccccc1)C(F)(F)F (stereo not given)	inactive: 3.13%
CP(=O)(NC(=O)Nc1ccccc1)Oc1ccccc1 (stereo not given)	inactive: 22.8%
CCc1ccc(OP(C)(=O)N2CCN(c3ccc([N+](=O)[O-])cc3)CC2)cc1 (stereo not given)	inactive: 4.92%
Cc1cc(C)cc(OP(C)(=O)Nc2ccc(SC(F)(F)F)cc2)c1 (stereo not given)	inactive: -3.74%
CP(=S)(Nn1cnnc1)Oc1ccccc1 (stereo not given)	inactive: -0.65%
CP(=O)(Nc1ccccc1Br)Oc1ccccc1 (stereo not given)	inactive: 9.02%
COc1ccccc1OP(C)(=O)Nc1ccccc1 (stereo not given)	inactive: -4.89%
COc1ccccc1OP(C)(=O)Nc1ccc(C)cc1 (stereo not given)	inactive: 9.73%
Cc1ccc(NP(C)(=O)Oc2ccccc2)c(C)c1 (stereo not given)	inactive: 1.25%
CCOC(=O)c1ccc(NP(C)(=O)Oc2ccccc2)cc1 (stereo not given)	inactive: 7.67%
Cc1cc(C)cc(OP(C)(N)=O)c1 (stereo not given)	inactive: -5.01%
COc1ccccc1OP(C)(=O)Nc1cc(Cl)ccc1C (stereo not given)	inactive: 2.44%
COc1ccc(OP(C)(=O)Nc2cccc(F)c2)cc1 (stereo not given)	inactive: 2.38%
O=[N+]([O-])c1cc([N+](=O)[O-])c(Nc2cccnc2)c([N+](=O)[O-])c1	inactive: 6.67%
O=[N+]([O-])c1ccc2c(c1)C=Nc1ccccc1O2	inactive: -5.64%
CC(C)(C)c1ccc(OP(C)(=O)Nc2ccc(SC(F)(F)F)cc2)cc1 (stereo not given)	inactive: 4.15%
Cc1cccc(C)c1OP(C)(N)=O (stereo not given)	inactive: 5.08%
CCN(CC)CCCOC(=O)C(O)(c1ccccc1)c1ccccc1	inactive: 6.22%
Cc1ccc(C)c(NP(C)(=O)Oc2ccccc2)c1 (stereo not given)	inactive: 2.14%

SMILES	inhibition
Cc1cc(C)cc(OP(C)(=O)Nc2ccccn2)c1 (stereo not given)	inactive: 7.39%
CP(=O)(Nc1cccc(Br)c1)Oc1ccccc1 (stereo not given)	inactive: 4.07%
COc1ccccc1OP(C)(=O)Nc1cccc(Br)c1 (stereo not given)	inactive: 5.83%
CCOC(=O)c1ccc(NP(C)(=O)Oc2cc(C)cc(C)c2)cc1 (stereo not given)	inactive: 0.62%
Cc1cc(C)cc(OP(C)(=O)Nc2ccc(C)cc2C)c1 (stereo not given)	inactive: 15.1%
CC1=NCCc2c1[nH]c1ccccc21.O=[N+]([O-])c1cc([N+](=O)[O-])c(O)c([N+](=O)[O-])c1	inactive: 3.99%
O=C(O)c1cccc(Nc2c([N+](=O)[O-])cc([N+](=O)[O-])cc2[N+](=O)[O-])c1	inactive: 10.2%
COc1ccccc1OP(C)(=O)Nc1c(C)cccc1C (stereo not given)	inactive: 6.98%
CN1CCCCC1COC(=O)C1(O)c2ccccc2CCc2ccccc21 (stereo not given)	inactive: -3.33%
CCCOc1ccc(NP(C)(=O)Oc2ccc(Cl)cc2)cc1 (stereo not given)	inactive: 7.62%
CP(=O)(Nc1ccc(SC(F)(F)F)cc1)Oc1ccccc1 (stereo not given)	inactive: -3.15%
CC1=C2N=C(C=C3N=C(C(C)=C4[N-][C@@](C)([C@@H]5N=C1[C@](C)(CCC(=O)NC[C@@H](C)OP(=O)([O-])O[C@H]1[C@@H](O)[C@@H](n6cnc7cc(C)c(C)cc76)O[C@@H]1CO)[C@H]5CC(N)=O)[C@@](C)(CC(N)=O)[C@@H]4CCC(N)=O)[C@@](C)(CC(N)=O)[C@@H]3CCC(N)=O)C(C)(C)[C@@H]2CCC(N)=O.[C-]#N.[Co+3]	active: 35.1%
O=[N+]([O-])c1cc([N+](=O)[O-])c(Nc2nnnn2CCO)c([N+](=O)[O-])c1	inactive: 6.6%
CCOC(=O)C(CC)C1=NC(C)(C)Cc2ccccc21.O=[N+]([O-])c1cc([N+](=O)[O-])c(O)c([N+](=O)[O-])c1 (stereo not given)	inactive: 7.99%
O=[N+]([O-])c1cc([N+](=O)[O-])c(-c2cnn(-c3ccccc3)c2)c([N+](=O)[O-])c1	inactive: 6.82%
Cc1nc2ccc3ccccc3c2s1.O=[N+]([O-])c1cc([N+](=O)[O-])c(O)c([N+](=O)[O-])c1	inactive: 12.6%
O=[N+]([O-])c1cc([N+](=O)[O-])c(-n2nnc3ccccc32)c([N+](=O)[O-])c1	inactive: 13%
CP(=O)(Nc1ccc2c(c1)OCCO2)Oc1ccccc1 (stereo not given)	inactive: 6.58%
Cc1ccccc1NP(C)(=O)Nc1ccccc1C	inactive: 5.76%
CP(=O)(Nc1ccc(SC(F)(F)F)cc1)Oc1ccc(F)cc1 (stereo not given)	inactive: 5.75%
CCOP(C)(=S)SCC(=O)NC(C)(CC)C(=O)O (stereo not given)	inactive: -2.43%
O=[N+]([O-])c1ccc(OP2(=O)COCCO2)cc1 (stereo not given)	inactive: 3.94%
Cc1cc(-c2cccc3ccccc23)c(C)cn1.O=[N+]([O-])c1cc([N+](=O)[O-])c(O)c([N+](=O)[O-])c1	inactive: -0.9%

SMILES	inhibition
O=[N+]([O-])c1cc([N+](=O)[O-])c(NCC2CCS(=O)(=O)C2)c([N+](=O)[O-])c1 (stereo not given)	inactive: 0.12%
Cc1c(C(c2ccc3c(c2)OCO3)c2c(C)n(C)n(-c3ccccc3)c2=O)c(=O)n(-c2ccccc2)n1C.O=[N+]([O-])c1cc([N+](=O)[O-])c(O)c([N+](=O)[O-])c1	inactive: -2.42%
COc1ccc(OP(C)(=O)Nc2cccc(Br)c2)cc1 (stereo not given)	inactive: -0.14%
CN(C)CCOC(=O)C(O)(c1ccccc1)C1CCCCC1 (stereo not given)	inactive: 4.81%
COc1ccc(NP(C)(=O)Oc2ccccc2OC)cc1 (stereo not given)	inactive: 5.69%
Cc1c([N+](=O)[O-])cc([N+](=O)[O-])c(Br)c1[N+](=O)[O-]	inactive: -2.48%
CCN(CC)CCCOC(=O)C(O)(c1ccccc1)C1CCCCC1 (stereo not given)	inactive: -8.45%
CP(=O)(Nc1ccccc1)Oc1ccc(F)cc1 (stereo not given)	inactive: 5.67%
O=[N+]([O-])c1cc([N+](=O)[O-])c(OC2CCCCC2O)c([N+](=O)[O-])c1 (stereo not given)	inactive: 3.84%
CCCCCOc1ccc(NP(C)(=O)Oc2ccc(Cl)cc2Cl)cc1 (stereo not given)	inactive: -0.75%
CCOC(=O)c1ccc(NP(C)(=O)Oc2ccc(F)cc2)cc1 (stereo not given)	inactive: 2.98%
COc1ccc(OP(C)(=O)Nc2ccc(SC(F)(F)F)cc2)cc1 (stereo not given)	inactive: 6.52%
O=C(OC1CN2CCC1CC2)c1ccc([N+](=O)[O-])cc1 (stereo not given)	inactive: 3.42%
O=C(OCCN1CCN(CCOCc2ccccc2)CC1)C(O)(c1ccccc1)c1ccccc1	inactive: 6.29%
COc1ccc2c(c1O)-c1c(O)c(OC)cc3c1[C@H](C2)[N+](C)(C)CC3.O=[N+]([O-])c1cc([N+](=O)[O-])c([O-])c([N+](=O)[O-])c1[O-]	inactive: 11.5%
CP(=O)(Nc1ccccc1F)Oc1ccccc1 (stereo not given)	inactive: -1.78%
CC(C)c1ccc(OP(C)(=O)Nc2ccc(SC(F)(F)F)cc2)cc1 (stereo not given)	inactive: -0.6%
Cc1c(NP(C)(=O)Oc2ccc(C(C)C)cc2)c(=O)n(-c2ccccc2)n1C (stereo not given)	inactive: 11.1%
O=[N+]([O-])c1cc([N+](=O)[O-])c(Nc2ccccn2)c([N+](=O)[O-])c1	inactive: 15.2%
CP(=O)(Nc1ccccn1)Oc1ccccc1 (stereo not given)	inactive: -1.38%
COc1ccccc1OP(C)(=O)Nc1ccc(C)cc1C (stereo not given)	inactive: 7.33%
CCc1ccc(OP(C)(=O)O)cc1	inactive: 7.36%
COc1ccccc1OP(C)(=O)Nc1ccc(Br)cc1 (stereo not given)	inactive: -1.78%

SMILES	inhibition
COc1ccc(OP(C)(=O)Nc2ccccn2)cc1 (stereo not given)	inactive: 4.66%
CN(C)CCOC(=O)C(O)(c1ccccc1)C1CCCC1 (stereo not given)	inactive: 9.74%
CP(=O)(Nc1ccc(Cl)cc1Cl)Oc1ccccc1 (stereo not given)	inactive: 7.15%
CCCCCCCCCCCCCCCC1C[N+](C)(C)CCOP(C)(=O)O1 (stereo not given)	inactive: -2.03%
CP(=O)(OCCOc1ccccc1)OCCOc1ccccc1	inactive: -2.73%
O=C1C(O)=C([N+](=O)[O-])C(=O)C(O)=C1[N+](=O)[O-]	inactive: 8.77%
Cc1cc(C)cc(OP(C)(=O)Nc2cccc(C(F)(F)F)c2)c1 (stereo not given)	inactive: 2.24%
COc1ccccc1OP(C)(=O)Nc1ccc(C)c(C)c1 (stereo not given)	inactive: 6.31%
COc1ccc(OP(C)(=O)Nc2ccccc2Br)cc1 (stereo not given)	inactive: 6.59%
CCOC(=O)c1ccc(NP(C)(=O)Oc2ccc(Cl)cc2)cc1 (stereo not given)	inactive: 4.97%
CP(=O)(OC12CC3CC(CC(C3)C1)C2)OC12CC3CC(CC(C3)C1)C2	inactive: 3.47%
COc1ccccc1OP(C)(=O)Nc1ccccc1Br (stereo not given)	inactive: 4.69%
CC(C)(C)c1ccc(OP(C)(=O)O)cc1	inactive: -0.12%
CP(=O)(Nc1ccc(Cl)cc1)Oc1ccc(F)cc1 (stereo not given)	inactive: 8.36%
CN(C)C(=O)c1c([N+](=O)[O-])cc([N+](=O)[O-])cc1[N+](=O)[O-]	inactive: 17.7%
CCN(CC)CC(O)COC(=O)C(O)(c1ccccc1)C1CCCCC1 (stereo not given)	inactive: 0.5%
COc1ccc(OP(C)(=O)Nc2ccc(Br)cc2)cc1 (stereo not given)	inactive: 3.54%
COc1ccccc1OP(C)(=O)Nc1c(C)n(C)n(-c2ccccc2)c1=O (stereo not given)	inactive: 1.2%
O=C(OCCCN1CCCC1)C(O)(c1ccccc1)C1CCCCC1 (stereo not given)	inactive: 6.36%
CP(=O)(Oc1ccccc1)N1CCOC1=O (stereo not given)	inactive: -1.92%
CCc1ccc(OP(C)(=O)Nc2cccnc2)cc1 (stereo not given)	inactive: 3.52%
